AlphaSeq binding of Ab-14 heavy chain variants to a spike HR2 peptide

Reference: Li et al. 2023, doi:10.1038/s41467-023-39022-2. File: FLAb, binding data.

All variants were tested on one target, the spike HR2 peptide PDVDLGDISGINAS (SARS-CoV-2).

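The starting antibody came from a phage panning campaign against this peptide. This is the validation round: designs drawn from the data on random variants, tested in the same kind of assay. Their group label is 14H_En_Gen (En: ensemble of fine-tuned language models; Gen: genetic algorithm). Affinity was read by AlphaSeq, a pooled yeast mating assay with surface-displayed partners. After mating in shaken culture at 30 °C for 16 h, diploids were selected and their barcode pairs sequenced. Scores were corrected for input abundance and mapped to Kd with protein pairs of known affinity run in the same pool. There are six technical replicates.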

The variants keep the light chain, the linker and the frameworks of Ab-14 (scFv order VH, a (GGGGS)3 linker, VL).
VH: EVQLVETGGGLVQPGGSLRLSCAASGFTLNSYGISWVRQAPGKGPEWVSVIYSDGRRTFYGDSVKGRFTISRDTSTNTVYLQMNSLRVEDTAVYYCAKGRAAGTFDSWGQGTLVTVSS
VL: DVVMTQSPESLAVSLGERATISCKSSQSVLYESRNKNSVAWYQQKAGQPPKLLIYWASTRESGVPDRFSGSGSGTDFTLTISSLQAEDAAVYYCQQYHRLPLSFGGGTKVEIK

The parent's heavy chain CDRs are GFTLNSYGIS, VIYSDGRRTFYGDSVK, GRAAGTFDS; each variant's own CDRs replace them letter for letter. The read-out is the apparent dissociation constant on a log10 scale (nM): the lower, the stronger. Replicates are averaged; those with no signal do not enter the mean. Where no diploid with the target was found in that replicate, the entry reads "nd": below detection, most likely a poor binder, though not proof of it. The authors averaged sequences with at least three values out of six and counted those with two or fewer as poor binders. Three control strains display no target. For all heavy chain designs, 1% of the pairings with them gave a signal, with a median of 2.08 and one signal in twenty below 0.84, so weak values seen in few replicates may be background. Also given: how often the same scFv was detected with the empty control strains, with their mean in brackets. The range of this assay differs from that of the first round, and the authors advise against merging the two.

| CDR-H1 | CDR-H2 | CDR-H3 | replicates, log10 nM | mean, log10 nM | control signals |
|---|---|---|---|---|---|
| GFDLNEYGIS | VIYADGVRTYYADSVK | GNQAGTFDI | -0.67 / -0.65 / -0.60 / -0.75 / -0.33 / -0.60 | -0.60 | 0 of 18 |
| GFDLNEYGIS | VIYADGMRTAYVDDVK | GNVAGTFDM | -0.20 / 0.29 / -0.11 / -0.16 / -0.07 / 0.32 | 0.01 | 0 of 18 |
| GFDLNEYGIS | VIYADGMRKAYSDSVK | GNVAGTFDV | -1.06 / -0.88 / -0.71 / -1.25 / -1.12 / -0.82 | -0.97 | 0 of 18 |
| GFDLDEYGIS | VIYADGMRTAYSDKVK | GQNAGTFDV | -0.44 / -0.43 / -0.61 / -0.60 / -0.94 / -0.34 | -0.56 | 0 of 18 |
| GFDLNEYGIS | VIYADGMRTAYADDVK | GQTAGTFDV | -0.36 / 0.15 / -0.27 / -0.28 / -0.52 / -0.42 | -0.28 | 0 of 18 |
| GFDLNEYGIS | VIYADGMRTAYADDVK | GNEAGTFDQ | -0.72 / -0.01 / -0.56 / 0.03 / -0.66 / -0.07 | -0.33 | 1 of 18 (2.73) |
| GFDLDEYGIS | VIYADGKRTAYADDVK | GENAGTFDQ | nd / 0.25 / -0.06 / 1.75 / 0.54 / 0.10 | 0.52 | 0 of 18 |
| GFDLNEYGIS | VIYADGMRTYYADDVK | GQNAGTFDV | -0.45 / -0.52 / -0.66 / -0.45 / -0.48 / -0.36 | -0.49 | 0 of 18 |
| GFDLNEYGIS | VIYADGMRTAYSDSVK | GANAGTFDQ | -0.22 / 0.11 / 0.10 / -0.16 / -0.61 / 0.05 | -0.12 | 0 of 18 |
| GFDLNEYGIS | VIYADGKRTAYADSVK | GQNAGTFDI | 0.16 / -0.24 / -0.24 / 0.35 / 0.00 / -0.09 | -0.01 | 0 of 18 |
| GFDLNEYGIS | VIYADGKRTAYSDSVK | GNVAGTFDI | -0.28 / -0.39 / -0.29 / -0.65 / -0.38 / -0.17 | -0.36 | 0 of 18 |
| GFDLDEYGIS | VIYADGMRTAYSDSVK | GQTAGTFDV | 0.97 / 0.16 / 0.18 / 0.12 / -0.23 / 0.38 | 0.26 | 0 of 18 |
| GFDLDEYGIS | VIYADGMRTAYVDSVK | GENAGTFDL | 0.77 / -0.22 / 0.37 / 1.67 / nd / 2.19 | 0.96 | 0 of 18 |
| GFDLNEYGIS | VIYADGVRTAYADSVK | GHNAGTFDI | 0.52 / 0.06 / 0.03 / 0.04 / 0.08 / 0.25 | 0.16 | 1 of 18 (2.36) |
| GFDLDEYGIS | VIYADGSRTAYADNVK | GEVAGTFDV | -0.29 / -0.16 / -0.21 / -0.37 / -0.46 / 0.00 | -0.25 | 2 of 18 (2.65) |
| GFDLNEYGIS | VIYADGVRQAYADSVK | GNVAGTFDT | -0.21 / -0.43 / -0.46 / -0.62 / -0.58 / -0.05 | -0.39 | 0 of 18 |
| GFDLDEYGIS | VIYADGMRTAYSDSVK | GNVAGTFDQ | -0.50 / -0.27 / -0.40 / -0.90 / -0.68 / -0.54 | -0.55 | 0 of 18 |
| GFDLDEYGIS | VIYADGVRTAYADSVK | GQVAGTFDV | -0.11 / -0.17 / 0.29 / -0.41 / -0.30 / 0.50 | -0.03 | 0 of 18 |
| GFDLDEYGIS | VIYADGMRTAYSDSVK | GSNAGTFDV | -0.45 / -0.38 / -0.74 / -0.99 / -0.75 / -0.40 | -0.62 | 1 of 18 (4.04) |
| GFDLNEYGIS | VIYADGVRTAYADSVK | GQNAGTFDV | -0.14 / -0.16 / -0.37 / -0.23 / -0.34 / -0.32 | -0.26 | 1 of 18 (3.26) |
| GFDLDEYGIS | VIYADGMRTAYSDSVK | GETAGTFDL | 0.65 / 0.65 / 0.02 / 0.65 / 0.53 / 0.61 | 0.52 | 0 of 18 |
| GFDLNEYGIS | VIYADGMRTAYADSVK | GELAGTFDV | -0.18 / -0.37 / -0.33 / -0.78 / -0.66 / -0.34 | -0.45 | 0 of 18 |
| GFDLEEYGIS | VIYADGMRTAYADSVK | GENAGTFDI | 0.00 / -0.09 / -0.31 / -0.15 / -0.31 / 0.36 | -0.08 | 0 of 18 |
| GFDLEEYGIS | VIYADGKRTAYADSVK | GTNAGTFDV | 1.11 / 0.30 / 1.10 / -0.31 / 0.58 / 2.07 | 0.81 | 0 of 18 |
| GFDLNEYGIS | VIYADGMRTAYADNVK | GNQAGTFDM | 0.09 / -0.69 / -0.28 / -0.52 / -0.25 / -0.42 | -0.35 | 0 of 18 |
| GFDLDEYGIS | VIYADGMRTAYVDDVK | GNVAGTFDV | 0.05 / -0.27 / 0.04 / -0.42 / -0.52 / -0.64 | -0.29 | 0 of 18 |
| GFDLNEYGIS | VIYADGVRTAYAESVK | GQNAGTFDV | nd / nd / nd / nd / nd / nd | nd | 0 of 18 |
| GFDLNEYGIS | VIYADGMRTAYTDSVK | GNVAGTFDV | 0.19 / -0.19 / -0.26 / -0.29 / -0.11 / -0.31 | -0.16 | 0 of 18 |
| GFDLNEYGIS | VIYADGMRTSYADSVK | GNVAGTFDM | -0.32 / -0.66 / -0.67 / -0.13 / -0.42 / -0.11 | -0.38 | 0 of 18 |
| GFDLNEYGIS | VIYADGVRTVYADSVK | GNVAGTFDL | 0.02 / -0.32 / -0.57 / -0.11 / -0.10 / -0.16 | -0.21 | 1 of 18 (2.29) |
| GFDLNEYGIS | VIYADGMRTAYADDVK | GDNAGTFDI | -0.46 / 0.56 / -0.26 / -0.62 / -0.65 / -0.30 | -0.29 | 0 of 18 |
| GFDLNEYGIS | VIYADGMRTAYTDSVK | GNTAGTFDI | -0.18 / -0.36 / -0.69 / -0.48 / -0.84 / -0.54 | -0.52 | 0 of 18 |
| GFDLNEYGIS | VIYADGKRTAYADSVK | GTNAGTFDT | -0.41 / -0.42 / -0.17 / -0.61 / -0.02 / -0.11 | -0.29 | 0 of 18 |
| GFDLNEYGIS | VIYADGMRTAYADNVK | GKVAGTFDV | 1.05 / 0.25 / -0.27 / 0.53 / 0.93 / 0.83 | 0.55 | 0 of 18 |
| GFDLDEYGIS | VIYADGQRTAYADSVK | GQNAGTFDL | -1.55 / -1.29 / -1.66 / -1.29 / -0.39 / -1.16 | -1.22 | 0 of 18 |
| GFDLNEYGIS | VIYADGMRTAYADTVK | GNTAGTFDV | -0.37 / -0.49 / -0.50 / -0.45 / -0.52 / -0.24 | -0.43 | 0 of 18 |
| GFDLDEYGIS | VIYADGVRTAYTDSVK | GNVAGTFDQ | -0.54 / 0.31 / -0.73 / -0.32 / -0.32 / -0.63 | -0.37 | 0 of 18 |
| GFDLDEYGIS | VIYADGMRTAYSDSVK | GQNAGTFDQ | -0.25 / -0.46 / -0.69 / -0.50 / -0.51 / -0.43 | -0.47 | 0 of 18 |
| GFDLNEYGIS | VIYADGVRTAYTDSVK | GNNAGTFDV | -1.32 / -0.76 / -0.69 / -1.44 / -1.59 / -1.26 | -1.18 | 1 of 18 (-0.08) |
| GFDLNEYGIS | VIYADGVRSAYADSVK | GNVAGTFDL | -0.17 / -0.29 / -0.28 / -0.54 / -0.25 / 0.04 | -0.25 | 0 of 18 |
| GFDLDEYGIS | VIYADGVRTAYSDSVK | GNTAGTFDI | -0.13 / -0.32 / -0.25 / -0.26 / -0.29 / 0.15 | -0.18 | 0 of 18 |
| GFDLNEYGIS | VIYADGRRTAYADSVK | GQVAGTFDI | -0.92 / -0.83 / -0.62 / -0.85 / -1.25 / -0.83 | -0.88 | 0 of 18 |
| GFDLDEYGIS | VIYADGMRTAYADKVK | GNEAGTFDV | -0.24 / -0.19 / -0.47 / -0.56 / -0.69 / -0.29 | -0.41 | 1 of 18 (1.70) |
| GFDLDEYGIS | VIYADGVRTAYADSVK | GNNAGTFDM | -0.21 / -0.36 / -0.79 / -0.74 / -0.76 / -0.25 | -0.52 | 0 of 18 |
| GFDLNEYGIS | VIYADGRRTFYADSVK | GENAGTFDV | -0.75 / -0.97 / -1.21 / -1.12 / -1.15 / -0.70 | -0.98 | 0 of 18 |
| GFDLDEYGIS | VIYADGMRTAYSDSVK | GNVAGTFDA | -0.19 / 0.27 / 0.23 / 0.36 / -0.09 / -0.43 | 0.03 | 0 of 18 |
| GFDLNEYGIS | VIYADGQRTAYADSVK | GSNAGTFDM | -0.06 / -0.26 / -0.44 / -0.14 / -0.68 / -0.25 | -0.30 | 0 of 18 |

Extract of 7 entries:

CDR-H1,CDR-H2,CDR-H3,"replicates, log10 nM","mean, log10 nM",control signals
GFDLNEYGIS,VIYADGMRTAYTDSVK,GNVAGTFDV,0.19 / -0.19 / -0.26 / -0.29 / -0.11 / -0.31,-0.16,0 of 18
GFDLDEYGIS,VIYADGMRTAYVDDVK,GNVAGTFDV,0.05 / -0.27 / 0.04 / -0.42 / -0.52 / -0.64,-0.29,0 of 18
GFDLDEYGIS,VIYADGVRTAYADSVK,GQVAGTFDV,-0.11 / -0.17 / 0.29 / -0.41 / -0.30 / 0.50,-0.03,0 of 18
GFDLNEYGIS,VIYADGVRTAYADSVK,GHNAGTFDI,0.52 / 0.06 / 0.03 / 0.04 / 0.08 / 0.25,0.16,1 of 18 (2.36)
GFDLNEYGIS,VIYADGQRTAYADSVK,GSNAGTFDM,-0.06 / -0.26 / -0.44 / -0.14 / -0.68 / -0.25,-0.30,0 of 18
GFDLNEYGIS,VIYADGMRTAYADNVK,GKVAGTFDV,1.05 / 0.25 / -0.27 / 0.53 / 0.93 / 0.83,0.55,0 of 18
GFDLNEYGIS,VIYADGMRTAYADDVK,GQTAGTFDV,-0.36 / 0.15 / -0.27 / -0.28 / -0.52 / -0.42,-0.28,0 of 18